The record followed here is paper PMC7032734, “Predicting nitroimidazole antibiotic resistance mutations in Mycobacterium tuberculosis with protein engineering” (2020).

By UniProt entry, the sequences of proteins in these tests, tags left out. Residues count along the entry.
UniProt A0R4Y6, 1-159: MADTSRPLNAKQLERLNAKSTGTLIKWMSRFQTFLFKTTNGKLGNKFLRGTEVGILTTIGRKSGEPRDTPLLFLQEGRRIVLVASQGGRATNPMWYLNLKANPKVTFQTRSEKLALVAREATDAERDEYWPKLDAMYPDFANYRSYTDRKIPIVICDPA
UniProt A0QU01, 1-140: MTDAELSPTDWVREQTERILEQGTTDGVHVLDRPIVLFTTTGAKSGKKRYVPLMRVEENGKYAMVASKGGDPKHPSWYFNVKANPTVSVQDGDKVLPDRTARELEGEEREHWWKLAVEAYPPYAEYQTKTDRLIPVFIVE

Molecules are shown by their SMILES.

The target of one assay is MSMEG_5998 (Mycolicibacterium smegmatis, UniProt A0R4Y6). The assay is described as follows: F420H2 oxidation, absorbance at […] nm. Particulars: F420H2 25 μM, 200 mM Tris-HCl pH 7.5, 0.1% Triton X-100, room temperature.
In a further assay the target is MSMEG_2027 (Mycolicibacterium smegmatis, UniProt A0QU01). The assay is described as follows: F420H2 oxidation, absorbance at […] nm. Particulars: F420H2 25 μM, 200 mM Tris-HCl pH 7.5, 0.1% Triton X-100, room temperature.

On to `CC(C)=CCC1=C(C)C(=O)c2ccccc2C1=O`, for which the Km (as a rule, the substrate concentration at which the rate is half of its maximum) stood at 97.9 µM at MSMEG_5998 and 80.7 µM at MSMEG_2027.
